These molecules were tested against human TPO receptor (Homo sapiens, UniProt P40238) (assay: Thrombopoietic activity: proliferation of TPO dependent BaF/hTPOR cells (WST-1)). Settings: read-out: ED50; BaF/hTPOR cell line (BaF-B03 with human TPO receptor), without IL-3; 20 hours incubation + 4 hours WST-1, absorbance 450 nm; ED50 = half concentration of the concentration showing maximum thrombopoietic activity.

The chains behind the UniProt entries cited, without tags or fusion partners. Residues count along the entry.
UniProt P40238, 26-635 limits assumed: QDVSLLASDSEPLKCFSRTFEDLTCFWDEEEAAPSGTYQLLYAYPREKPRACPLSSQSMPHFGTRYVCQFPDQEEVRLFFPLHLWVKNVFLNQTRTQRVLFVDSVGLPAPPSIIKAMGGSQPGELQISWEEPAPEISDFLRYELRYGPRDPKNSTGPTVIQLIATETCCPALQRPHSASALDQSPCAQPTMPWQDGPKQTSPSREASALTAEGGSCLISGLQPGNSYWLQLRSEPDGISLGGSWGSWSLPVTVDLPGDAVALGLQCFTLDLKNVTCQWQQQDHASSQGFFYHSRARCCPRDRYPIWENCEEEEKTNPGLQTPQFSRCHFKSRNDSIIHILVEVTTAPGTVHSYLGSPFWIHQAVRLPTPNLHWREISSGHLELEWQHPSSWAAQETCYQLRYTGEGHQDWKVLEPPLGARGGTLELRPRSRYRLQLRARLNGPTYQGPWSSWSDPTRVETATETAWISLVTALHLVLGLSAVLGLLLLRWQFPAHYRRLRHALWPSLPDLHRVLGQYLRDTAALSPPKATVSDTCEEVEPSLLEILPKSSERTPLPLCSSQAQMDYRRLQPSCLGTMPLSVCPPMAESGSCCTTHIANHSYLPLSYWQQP

Compound	EC50 [nM]
O=C(O)c1ccc2cc(C(=O)Nc3nc(-c4ccc(Cl)c(Cl)c4)cs3)sc2c1	960
O=C(O)C1=Cc2cc(C(=O)Nc3nc(-c4ccc(Cl)c(Cl)c4)cs3)ccc2OC=C1	5670
O=C(O)C1=Cc2ccc(C(=O)Nc3nc(-c4ccc(Cl)c(Cl)c4)cs3)cc2OC=C1	1710
O=C(Nc1nc(-c2ccc(Cl)c(Cl)c2)cs1)c1ccc2c(c1)OCCC(C(=O)O)C2 (stereo not shown)	16600
O=C(Nc1nc(-c2ccc(Cl)c(Cl)c2)cs1)c1ccc2sc(C(=O)O)cc2c1	595
O=C(O)c1cc(O)c2cc(C(=O)Nc3nc(-c4ccc(Cl)c(Cl)c4)cs3)ccc2c1	214
Cc1c(C(=O)Nc2nc(-c3ccc(Cl)c(Cl)c3)cs2)oc2ccc(C(=O)O)cc12	120
